The text below walks through data of paper PMC8157280, “Toxicokinetic/Toxicodynamic Interaction Studies in Rats between the Drugs of Abuse γ-Hydroxybutyric Acid and Ketamine and Treatment Strategies for Overdose” (Pharmaceutics, 2021).

Data set [1] is described as follows: GHB blood-brain partitioning at steady state. The following applies: GHB 400 mg/kg i.v. bolus + 208 mg/kg/h infusion alone; steady state 4 h.
On the set-up of data set [2]: method as in PMID 12667908. The following applies: GHB 400 mg/kg i.v. alone; cited from earlier work.

Regarding `O=C(O)CCCO` [GHB, γ-hydroxybutyric acid], in data set [1], the “Cplasma GHB” value was 0.89 ± 0.05 mg/mL and the “GHB Brain/Plasma Ratio” value was 0.24 ± 0.02. Further, in data set [2], the “GHB Brain/Plasma Ratio at RRR” value is 0.19 ± 0.02.
